From patent publication US20090035440A1, “Compositions comprising polyphenol” (Conopco, Inc. d/b/a Unilever, priority 2007, published 2009)

Assay: Appearance of EGCG/complexing agent mixed systems (Example 1)
Format: physicochemical
Conditions: 0.6 wt % EGCG and 0.6 wt % CA
Procedure: Stock solutions containing 1.2 wt % EGCG were prepared by adding the powder to de-ionized water (conductivity=18.2 MΩ.cm) and stirring at 40° C. Stock Solutions of PVP, WPI, L-proline and poly-L-proline, were each prepared by dissolving in de-ionized water 25° C. to give a concentration of 1.2 wt %. Stock solutions of pectin, were prepared by dissolving powder in de-ionized water at 80° C. for 1 hour and then cooling to 25° C. After dissolving the material, the pH of all samples, except for the WPI, was adjusted to 5.0 using 0.01 HCl or 0.1 M NaOH. The WPI was used at a pH of 6.5 to avoid precipitation of the whey proteins. In all cases the maximum ionic strength would remain below 10 mM. After setting the pH, mixed systems were prepared by quickly adding a fixed weight of the stock EGCG-solution into the same weight of complexing agent (CA)-solution under continuous stirring. Thus the final samples contained 0.6 wt % EGCG and 0.6 wt % CA.

## poly-L-proline
  Appearance: Transparent
